Test results taken from patent publication US6790824B1, “Cytokines having neurotrophic activity” (Biopharm Gesellschaft zur biotechnologischen Entwicklung …, priority 1997, dated 2004).

Tested on: embryonic chicken dorsal root ganglia (DRG) neurons
Assay: Survival of dissociated embryonic chick dorsal root ganglia (DRG) neurons, 48 h, counting of surviving neurons
Type: cell-based
Description: Dissociated cultures of embryonic chicken dorsal root ganglia (DRG) were generated as described in details by Krieglstein and Unsicker (Neurochem. Res., 21(7) (1996) 843-850). Briefly, DRGs from white Leghorn chick embryos (day 8) were dissected in Ca^2+-Mg^2+ free Hanks' balanced salt solution. After incubation in 0.08% trypsin for 15 min ganglia were dissociated by trituration. Cells were seeded in polyomithin-laminin coated 96-well microtiter plates (A/2 Costar) at a density of 1,200 cells/well. Growth factors were applied at the time of plating in a final volume of […] Dulbecco's Modified Eagle's Medium supplemented with 0.25% bovine serum albumin, N1 additives and 100 U/ml penicillin. As a positive control, nerve growth factor (NGF) was used at the saturating concentration of 5 ng/ml. After 48 h of incubation at 37° C. in a humidified atmosphere containing 5% CO2, cultures were fixed with 2.5% glutaraldehyde. Neuronal cells were identified by their phase-bright and neurite-bearing morphologies and counted within 30% of the total surface area using phase contrast microscopy. […]
At appropriate times (CG: 24 h, DRG: 48 h, SG: 72 h) cultures were fixed by addition of 2.5% glutardialdehyde in phosphate buffered saline (PBS). Numbers of surviving neurons were determined by direct counting of 30% of the surface area using phase contrast microscopy. […]

B1: BMP-2: rh BMP-2, bone morphogenetic protein (protein, UniProt P12643 283-396, looked up)
Bone morphogenetic protein 2: QAKHKQRKRLKSSCKRHPLYVDFSDVGWNDWIVAPPGYHAFYCHGECPFPLADHLNSTNHAIVQTLVNSVNSKIPKACCVPTELSAISMLYLDENEKVVLKNYQDMVVEGCGCR
How did the “survival promoting effect of the single factor” value (E8 chick DRG, 48 h, factor added alone, dose-response) turn out when B1 was run?
Its value is “significant effect”.

And the “survival of DRG neurons in combination with NT-3” value (NT-3 10 ng/ml (saturating), E8, 48 h)?
Its value is “significantly augmented the promoting effect of NT-3”.
